Consider one compound from patent US6287840A (Axys Pharmaceuticals, Inc., priority 1999, dated 2001).

Protein sequences, listed by entry. Tags and fused reporters are not part of them. Residues count along the entry.
UniProt P07154, 114-288 limits assumed: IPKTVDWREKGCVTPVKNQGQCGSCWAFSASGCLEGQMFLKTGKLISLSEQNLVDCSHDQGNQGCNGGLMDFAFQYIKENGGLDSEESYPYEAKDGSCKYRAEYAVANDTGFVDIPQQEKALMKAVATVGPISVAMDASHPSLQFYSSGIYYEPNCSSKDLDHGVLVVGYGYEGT
UniProt P07154, 291-334 limits assumed: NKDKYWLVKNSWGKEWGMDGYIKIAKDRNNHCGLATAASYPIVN

Structures are written as SMILES.

Assay [1] has as its target Cathepsin L from rat liver (Rattus norvegicus, UniProt P07154). Nature of the assay: Inhibition of cathepsin L, Z-Phe-Arg-AMC fluorescence progress curves. The procedure: Stock solutions of the various inhibitors (10 mM) were made in DMF; dilutions were made in the same solvent. Cathepsin L from rat liver, (see Mason et al., Biochem. J. 226:233-241 (1985)) was approximately 1 nM in the assay. The assay buffer contained 50 mM phosphate at pH 6:2, 2.5 mM dithiothreitol (DTT), and 2.5 mM ethylenediaminetetraacetic acid (EDTA). The substrate for cathepsin L was 5 μM Z-Phe-Arg-AMC (carbobenzyloxyphenylalanylarginylaminomethylcoumarin). The assays were initiated at 25° C. by addition of enzyme to 2 mL of assay buffer containing the substrate and the various inhibitors (30-0.001 μM). The increase in fluorescence at 460 nm with excitation at 380 nm was followed with time. Inactivation of cathepsin L was indicated by a downward curve in the increase in fluorescence with time. In the absence of inhibitors, the enzymatic production of free AMC was linear throughout the time course of inactivation examined. Data points were collected over at least 3 half-times of inactivation. The inhibition progress curves were analyzed using non-linear curve fitting software to compute the kobs values. Approximate second-order inactivation constants (kobs /[I]) were calculated for all compounds. For selected inhibitors, plots of 1/[I] vs. 1/kobs yielded the true constants kirr, KI, and kirr/KI and were corrected for the presence of substrate by dividing KI (app.) by (1+[S]/Km).

A further assay deals with calpain. Description: Inhibition (inactivation) of calpain, Suc-Leu-Tyr-AMC. Particulars: values marked * (or %); pH 7.5, 5 mM CaCl2, 25° C. How it is done: The inhibitors were tested against calpain at 1 or 2% as for the other enzymes. The reaction conditions were 50 mM Tris, pH 7.5, 5 mM CaCl2, 2.5 mM DTT, assayed at 25° C. The substrate was 100 μM Suc-Leu-Tyr-AMC.

Turning to `O=C(/C=C/[C@H](CCc1ccccc1)NC(=O)[C@H](Cc1ccccc1)NC(=O)N1CCOCC1)N[C@@H](Cc1ccccc1)C(=O)O`, the kirr in assay [1] stood at 0.032 s⁻¹. For the same compound, the Ki in assay [1] (corrected for substrate) is 3.7 µM. In addition, the “k/KI (kirr/KI)” value in assay [1] (values without asterisk, 25° C., pH 6.2) was 8,600 M^-1 sec^-1. In the assay on calpain, the “kobs /[I]*” value is less than 50 M⁻¹ s⁻¹.
